# Yeast mating assay B: variants of the scFv Ab-14

The measurements come from Li et al. 2023 (doi:10.1038/s41467-023-39022-2) through the FLAb antibody collection.

Antigen: PDVDLGDISGINAS, a 14-residue peptide of the SARS-CoV-2 spike HR2 region.

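The starting antibody came from a phage panning campaign against this peptide. The variants were designed computationally from a first round of random CDR variants and then made and measured. Their group label is 14H_En_Gen (En: ensemble of fine-tuned language models; Gen: genetic algorithm). In AlphaSeq, yeast of one mating type display the scFv and yeast of the other type display the target. Binding brings cells together so that they mate, and sequencing counts the barcode pairs among the diploids. Read counts were normalised to the haploid input and turned into Kd by a linear fit to BCL2-family pairs of known affinity, for each replicate. Mating was done six times.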

Parent scFv Ab-14: VH joined to VL by three GGGGS repeats. Changes lie in the heavy chain CDRs alone.
VH: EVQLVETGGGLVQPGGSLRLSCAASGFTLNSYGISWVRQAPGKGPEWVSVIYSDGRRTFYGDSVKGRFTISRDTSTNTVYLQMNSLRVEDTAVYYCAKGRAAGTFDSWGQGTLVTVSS
VL: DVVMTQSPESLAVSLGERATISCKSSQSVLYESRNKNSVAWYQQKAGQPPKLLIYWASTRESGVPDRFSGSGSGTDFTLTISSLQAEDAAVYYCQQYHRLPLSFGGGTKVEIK

Each variant is given by its three heavy chain CDRs, as the data file delimits them; those of the parent are GFTLNSYGIS, VIYSDGRRTFYGDSVK, GRAAGTFDS.
Values are log10 of the apparent Kd in nM; lower means stronger binding.
"ND" means that the variant was in the library but no mating with the target was seen in that replicate; the authors take this as a sign of poor binding, and no number exists.
As a blank, each scFv also met three strains without target: over all heavy chain designs, 1% of these pairings were detected, typically at 2.08 and seldom below 0.84. The control count says in how many pairings with the empty strains this scFv gave a signal, with their mean in brackets.
Values of this round are not directly comparable with the first-round values of the same sequences.
The authors averaged sequences with at least three values out of six and counted those with two or fewer as poor binders.

CDR-H1	CDR-H2	CDR-H3	replicates, log10 nM	control signals
GFDLNEYGIS	VIYADGMRTAYQDSVK	GENAGTFDL	-0.41 -0.35 0.08 -0.21 -0.43 -0.35	0 of 18
GFDLNEYGIS	VIYADGMRTFYADSVK	GENAGTFDV	-0.37 -0.27 -0.55 -0.57 -0.71 -0.52	0 of 18
GFDLDEYGIS	VIYADGMRTAYTDSVK	GENAGTFDQ	-1.99 -1.17 ND -1.95 -1.29 ND	0 of 18
GFDLDEYGIS	VIYADGQRTAYADDVK	GQNAGTFDV	-0.39 -0.27 -0.24 -0.51 -0.54 -0.23	1 of 18 (2.51)
GFDLNEYGIS	VIYADGKRTAYVDDVK	GENAGTFDV	0.12 0.23 0.28 0.13 0.30 0.24	0 of 18
GFDLNEYGIS	VIYADGMRKAYADSVK	GQVAGTFDV	-0.21 -0.79 -1.01 -1.13 -1.08 -0.99	1 of 18 (1.36)
GFDLNEYGIS	VIYADGKRTAYSDSVK	GNQAGTFDV	-0.10 -0.32 -0.22 -0.42 -0.60 -0.32	0 of 18
GFDLNEYGIS	VIYADGSRTAYADSVK	GETAGTFDI	-0.14 -0.10 -0.48 -0.62 -0.55 -0.44	0 of 18
GFDLNEYGIS	VIYADGQRTVYADSVK	GNVAGTFDV	-0.43 -0.57 -0.70 -0.80 -0.79 -0.60	2 of 18 (3.06)
GFDLDEYGIS	VIYADGMRTAYADSVK	GQNAGTFDI	-1.68 -1.77 -1.56 -1.52 -1.29 -1.72	0 of 18
GFDLDEYGIS	VIYADGMRKAYADDVK	GENAGTFDV	-0.52 -0.68 -0.70 -0.83 -0.58 -0.06	0 of 18
GFDLDEYGIS	VIYADGVRTAYADSVK	GENAGTFDQ	-0.23 -0.31 0.35 -0.50 -0.72 -0.22	1 of 18 (2.33)
GFDLDEYGIS	VIYADGKRTAYADKVK	GNVAGTFDL	-0.22 -0.62 0.61 -0.94 -0.08 0.50	0 of 18
GFDLNEYGIS	VIYADGKRTVYADSVK	GNNAGTFDI	-0.22 -0.04 0.23 0.87 0.09 0.32	0 of 18
GFDLDEYGIS	VIYADGMRTYYADSVK	GENAGTFDQ	0.48 -0.29 0.22 1.12 0.16 0.36	0 of 18
GFDLNEYGIS	VIYADGQRKAYADDVK	GNVAGTFDV	-0.13 -0.51 -0.48 -0.64 -0.57 -0.22	0 of 18
GFDLNEYGIS	VIYADGMRTAYSDSVK	GENAGTFVV	2.35 ND 1.64 1.02 1.91 1.90	0 of 18
GFDLNEYGIS	VIYADGRRTYYADSVK	GEVAGTFDV	-0.08 0.08 -0.56 -0.31 -0.42 0.00	0 of 18
GFDLNEYGIS	VIYADGRRTAYADKVK	GNVAGTFDQ	-0.23 -0.42 -0.56 -0.12 -0.31 -0.23	0 of 18
GFDLNEYGIS	VIYADGQRTAYADDVK	GENAGTFDQ	0.27 0.28 -0.26 -0.40 -0.37 0.32	0 of 18
GFDLDEYGIS	VIYADGVRTAYADDVK	GNTAGTFDV	-0.48 -0.15 -0.71 -0.59 -0.29 -0.62	0 of 18
GFDLNEYGIS	VIYADGMRTAYADDVK	GGNAGTFDT	-1.06 -0.82 -1.35 -1.61 -1.72 -1.56	0 of 18
GFDLNEYGIS	VIYADGMRTAYTDSVK	GNNAGTFDM	-0.01 -0.62 -0.74 -0.69 -0.58 -0.89	0 of 18
GFDLDEYGIS	VIYADGKRTAYADDVK	GNTAGTFDV	-0.26 -1.14 -0.97 -0.16 -0.79 -0.57	0 of 18
GFDLDEYGIS	VIYADGKRTAYADDVK	GENAGTFDL	-0.02 -0.12 -0.56 -0.85 -0.41 -0.43	0 of 18
GFDLDEYGIS	VIYADGQRTAYADSVK	GNTAGTFDM	-0.01 0.05 1.10 -0.74 -0.87 -0.28	0 of 18
GFDLDEYGIS	VIYADGMRTAYSDKVK	GNQAGTFDV	0.67 -0.30 -0.98 -1.03 0.27 -0.62	0 of 18
GFDLNEYGIS	VIYADGMRTFYADDVK	GENAGTFDM	-0.17 -0.35 -0.41 -0.89 -0.54 -0.39	0 of 18
GFDLNEYGIS	VIYADGRRTAYSDSVK	GNQAGTFDM	0.25 0.78 -0.31 0.12 0.69 0.27	0 of 18
GFDLNEYGIS	VIYADGIRTAYADDVK	GENAGTFDV	-0.49 -0.15 -0.38 -0.39 -0.65 -0.38	1 of 18 (2.38)
GFDLNEYGIS	VIYADGRRTAYIDSVK	GGNAGTFDV	-0.21 -0.79 -0.60 -0.20 0.26 -0.09	0 of 18
GFDLEEYGIS	VIYADGQRTAYADSVK	GNVAGTFDV	-0.54 -0.18 -0.27 -0.28 -0.13 -0.20	0 of 18
GFDLDEYGIS	VIYADGRRTAYADSVK	GETAGTFDI	-0.16 -0.06 -0.37 -0.55 -0.48 -0.20	0 of 18
GFDLNEYGIS	VIYADGSRTFYADSVK	GNVAGTFDI	-0.19 -0.48 -0.50 -0.66 -0.63 -0.42	0 of 18
GFDLDEYGIS	VIYADGRRTAYSDSVK	GNTAGTFDQ	-0.25 -0.53 -0.87 -0.80 -0.42 -0.75	0 of 18
GFDLNEYGIS	VIYADGMRTAYADSVK	GGNAGTFDI	-0.27 -0.11 0.00 -0.26 -0.42 -0.24	0 of 18
GFDLNEYGIS	VIYADGVRTAYADNVK	GQTAGTFDV	0.17 -0.26 0.09 -0.48 -0.35 -0.29	1 of 18 (2.34)
GFDLNEYGIS	VIYADGRRKAYADSVK	GNVAGTFDL	-0.17 -0.31 -0.60 -0.46 -0.59 -0.35	1 of 18 (2.93)
GFDLNEYGIS	VIYADGMRTAYAESVK	GNVAGTFDV	-0.93 -0.47 -1.20 -0.75 -1.17 -0.92	0 of 18
GFDLDEYGIS	VIYADGMRKVYADSVK	GNVAGTFDV	-0.47 -0.81 -1.09 -0.59 -0.68 -0.64	0 of 18
GFDLNEYGIS	VIYADGSRTAYVDSVK	GNVAGTFDI	-0.36 -0.23 -0.55 -0.53 -0.49 -0.21	0 of 18
GFDLNEYGIS	VIYADGMRTAYADSVK	GQNAGTFDV	ND ND 0.32 ND ND ND	0 of 18
GFDLDEYGIS	VIYADGKRSAYADSVK	GNVAGTFDV	-0.66 -0.44 -0.48 -0.88 -0.49 0.06	0 of 18
GFDLNEYGIS	VIYADGMRTFYSDSVK	GNVAGTFDQ	-0.74 -1.14 -0.96 -0.53 -1.06 -0.45	0 of 18
GFDLNEYGIS	VIYADGMRTAYQDSVK	GQNAGTFDV	-0.32 -0.25 -0.42 -0.35 -0.05 -0.12	1 of 18 (0.79)
GFDLNEYGIS	VIYADGKRTAYVDSVK	GEVAGTFDQ	-0.56 -0.60 -0.63 -0.73 -0.73 -0.71	1 of 18 (2.09)

Extract of 3 entries:

CDR-H1	CDR-H2	CDR-H3	replicates, log10 nM	control signals
GFDLDEYGIS	VIYADGKRSAYADSVK	GNVAGTFDV	-0.66 -0.44 -0.48 -0.88 -0.49 0.06	0 of 18
GFDLDEYGIS	VIYADGRRTAYSDSVK	GNTAGTFDQ	-0.25 -0.53 -0.87 -0.80 -0.42 -0.75	0 of 18
GFDLNEYGIS	VIYADGMRTAYQDSVK	GQNAGTFDV	-0.32 -0.25 -0.42 -0.35 -0.05 -0.12	1 of 18 (0.79)